Legend:
[1] = biological target: T1, Xanthine oxidase (XO; from bovine milk) (Bos taurus, UniProt P80457); test: XO-catalyzed 6-mercaptopurine oxidation (6-thiouric acid formation), HPLC; format: biochemical; conditions: substrate 6MP 5 μM; inhibitor 0–20 μM
T1 construct: Xanthine oxidase (XO; from bovine milk); purchased Sigma-Aldrich; host or cells: bovine milk
Description: (§1) Chrysin-7-glucuronide (C7G) and 6-thiouric acid were purchased from Carbosynth (Berkshire, UK). Chrysin-7-sulfate (C7S) was synthetized as described. Stock solutions of flavonoids (each 2 mM) were prepared in dimethyl sulfoxide (DMSO) and stored at −20 °C.
(§2) To test the inhibitory effects of flavonoids and their metabolites on the XO-catalyzed oxidation of xanthine and 6MP, the previously reported methods were applied without modifications. […] In each experiment, solvent controls (DMSO) were used. Metabolite formation (% of control) was plotted vs. the inhibitor concentrations in decimal logarithmic scale. IC50 values were evaluated by sigmoidal fitting, employing GraphPad Prism 8 software (San Diego, CA, USA).
(§3) After the in vitro XO assays, xanthine and uric acid as well as 6MP and 6-thiouric acid were quantified by the HPLC-UV methods described in our previous report, without any modifications.

The chains behind the UniProt entries cited, without tags or fusion partners.
UniProt P80457, whole entry: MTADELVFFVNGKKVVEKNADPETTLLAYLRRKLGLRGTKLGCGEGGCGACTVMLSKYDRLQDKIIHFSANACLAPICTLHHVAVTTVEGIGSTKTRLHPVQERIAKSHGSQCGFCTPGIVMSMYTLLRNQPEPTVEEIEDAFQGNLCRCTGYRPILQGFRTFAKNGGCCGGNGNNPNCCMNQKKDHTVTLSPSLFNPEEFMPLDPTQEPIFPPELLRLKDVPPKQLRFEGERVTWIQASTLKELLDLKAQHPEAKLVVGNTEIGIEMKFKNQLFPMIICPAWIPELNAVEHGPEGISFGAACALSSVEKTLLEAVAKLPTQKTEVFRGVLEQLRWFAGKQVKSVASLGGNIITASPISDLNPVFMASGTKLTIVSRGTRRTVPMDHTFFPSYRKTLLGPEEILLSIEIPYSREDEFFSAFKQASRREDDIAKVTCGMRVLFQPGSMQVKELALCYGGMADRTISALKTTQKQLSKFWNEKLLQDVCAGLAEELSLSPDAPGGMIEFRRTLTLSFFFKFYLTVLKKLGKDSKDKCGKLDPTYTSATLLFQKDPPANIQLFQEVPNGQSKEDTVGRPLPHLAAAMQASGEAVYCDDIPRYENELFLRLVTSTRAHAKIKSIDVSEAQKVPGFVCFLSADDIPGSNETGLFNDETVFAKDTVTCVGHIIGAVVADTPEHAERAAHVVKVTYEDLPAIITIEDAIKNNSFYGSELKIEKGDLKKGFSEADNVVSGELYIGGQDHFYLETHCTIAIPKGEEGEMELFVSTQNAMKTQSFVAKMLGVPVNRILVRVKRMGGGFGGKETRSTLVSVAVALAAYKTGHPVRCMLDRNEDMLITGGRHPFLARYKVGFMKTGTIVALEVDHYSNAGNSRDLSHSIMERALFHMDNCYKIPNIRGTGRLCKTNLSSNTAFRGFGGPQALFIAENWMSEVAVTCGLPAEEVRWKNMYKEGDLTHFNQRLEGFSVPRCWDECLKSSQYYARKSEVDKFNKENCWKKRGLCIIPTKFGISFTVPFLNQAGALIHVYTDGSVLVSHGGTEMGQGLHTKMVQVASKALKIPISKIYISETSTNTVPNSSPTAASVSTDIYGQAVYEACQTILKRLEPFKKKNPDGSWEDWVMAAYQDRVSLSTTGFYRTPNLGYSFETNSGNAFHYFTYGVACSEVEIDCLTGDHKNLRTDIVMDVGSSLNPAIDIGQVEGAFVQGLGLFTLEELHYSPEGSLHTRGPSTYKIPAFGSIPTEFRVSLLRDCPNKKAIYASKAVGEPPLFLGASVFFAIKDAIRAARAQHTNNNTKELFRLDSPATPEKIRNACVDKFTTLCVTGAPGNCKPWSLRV

[2] = biological target: T1, Xanthine oxidase (XO; from bovine milk); test: XO-catalyzed xanthine oxidation (uric acid formation), HPLC; format: biochemical; conditions: substrate xanthine 5 μM; inhibitor 0–20 μM
Description: as §1, §2, §3

IC50 [1]: 380 nM | IC50 [2]: 290 nM
SMILES: O=c1c(O)c(-c2ccc(O)cc2)oc2cc(O)cc(O)c12 [Kaempferol, 3,5,7,4′-tetrahydroxyflavone]
